{"sequences": {"note": "Sequences of proteins named here, by UniProt entry; tags and fusion partners are left off.", "UniProt P34972, whole entry": "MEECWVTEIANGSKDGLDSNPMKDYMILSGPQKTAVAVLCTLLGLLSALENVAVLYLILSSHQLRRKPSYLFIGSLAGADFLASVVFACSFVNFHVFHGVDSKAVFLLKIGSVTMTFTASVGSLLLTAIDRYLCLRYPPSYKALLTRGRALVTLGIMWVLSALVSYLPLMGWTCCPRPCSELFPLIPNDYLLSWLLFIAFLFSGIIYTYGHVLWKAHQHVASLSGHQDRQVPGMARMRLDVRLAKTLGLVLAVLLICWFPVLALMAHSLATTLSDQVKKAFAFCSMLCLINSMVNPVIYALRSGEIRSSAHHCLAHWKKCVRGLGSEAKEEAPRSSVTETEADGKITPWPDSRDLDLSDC"}, "source": "BindingDB's records for PubMed 10688601", "about": "(Virginia Commonwealth University, 2000)", "key": {"Cannabinoid receptor 2 [1]": {"target": "T1, Cannabinoid receptor 2 (Rattus norvegicus, UniProt Q9QZN9)", "T1 sequence (Q9QZN9 whole entry)": "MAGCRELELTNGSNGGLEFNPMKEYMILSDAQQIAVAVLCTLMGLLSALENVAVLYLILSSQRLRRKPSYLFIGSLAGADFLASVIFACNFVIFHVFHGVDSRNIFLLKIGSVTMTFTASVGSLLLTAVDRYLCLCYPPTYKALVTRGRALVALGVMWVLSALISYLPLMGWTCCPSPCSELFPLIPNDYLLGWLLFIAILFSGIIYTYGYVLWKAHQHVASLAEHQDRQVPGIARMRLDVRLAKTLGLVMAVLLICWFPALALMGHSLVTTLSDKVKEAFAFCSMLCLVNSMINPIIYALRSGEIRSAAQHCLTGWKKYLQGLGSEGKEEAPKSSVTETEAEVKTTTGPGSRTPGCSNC"}, "Cannabinoid receptor 2 [2]": {"target": "Cannabinoid receptor 2 (Homo sapiens, UniProt P34972)"}}}
{"compound": "CCCCC/C=C\\C/C=C\\C/C=C\\C/C=C\\CCCC(=O)NCCO", "note": "[Arachidonoyl ethanolamide]", "values": [{"measurement": "Ki", "setting": "Cannabinoid receptor 2 [1]", "value": "> 10000", "unit": "nM"}, {"measurement": "Ki", "setting": "Cannabinoid receptor 2 [2]", "value": 306, "unit": "nM"}]}
